This data set can be described thus: Dissolution test of poorly-soluble substances using 2nd fluid for disintegration test (pH 6.8) of the Japanese Pharmacopoeia. Format: physicochemical.

Under “Estradiol Enanthate, elution time 10 min”, `CCCCCCC(=O)O[C@H]1CC[C@H]2[C@@H]3CCc4cc(O)ccc4[C@H]3CC[C@]12C` [compound 44, Estradiol Enanthate] gave a Dissolved amount of 10.2 µg/mL.
In turn, `CC(=O)SC[C@@H](C)C(=O)N1CCC[C@H]1C(=O)N[C@@H](Cc1ccccc1)C(=O)O` [compound 24, Alacepril] gave a Dissolved amount (elution time 10 min) of 2514.7 µg/mL, a Dissolved amount (elution time 120 min) of 2588.4 µg/mL and a Dissolved amount (elution time 360 min) of 2548.2 µg/mL.

For the origin of these results see patent publication US9023398B2, “Method for improving the aqueous solubility of poorly-soluble substances” (Kabushiki Kaisha Sangi, priority 2009, dated 2015).
